In assay [1] the target is collectin-11 (recombinant) (UniProt Q9BWP8).
Assay [2] shares this target. As to the kind of experiment: ELISA; plates coated with 4 μg/ml recombinant CL-11 or ficolin-1, -2, -3 in 0.1 mol/L carbonate buffer pH 9.6; THP 0.3125 to 10 μg/mL in VBS with 0.5 mmol/L MgCl2, 0.15 mmol/L CaCl2, 37°C, 1 hour; detected with anti-uromodulin polyclonal antibody; OD405. For orientation: ELISA stands for enzyme-linked immunosorbent assay.

Regarding “Tamm-Horsfall protein (native, purified from urine) (from UniProt P07911 25-587) (natural protein)”, the inhibition of haemolysis of chicken erythrocytes by the lectin pathway (MBL deficient serum, anti-C1q antibody, 0.15 mmol/L CaCl2), THP 0 to 10 μmol/L in assay [1] amounted to 90%. Consider “Tamm-Horsfall protein treated with PNGaseF in non-reduced, non-denaturing condition (part of the N-glycan removed) (from UniProt P07911 25-614) (natural protein)”, for which the binding ability, percent of native THP in assay [2] turned out to be 60%. Take “Tamm-Horsfall protein treated with endoglycosidase H (high-mannose glycans removed) (from UniProt P07911 25-614) (natural protein)”: the binding ability, percent of native THP in assay [2] was 30%.

Values taken from article PMC7131921.
